The compounds below were run on Human immunodeficiency virus 1 (assay: Ratio of Kd for wild type HIV-1 Fe2(env2.0)3 peptide model of gp41 hydrophobic pocket to Ka for wild type HIV-1 Fe2(env2.0)3 peptide model of gp41 hydrophobic pocket).
With `Nc1ccc(C(=O)N[C@@H](Cc2c[nH]c3ccccc23)C(=O)O)cc1OCCc1c[nH]c2ccccc12` the Ratio was 1.6 ×10⁻⁵ /M.
Work on `O=C(CCC(=O)Nc1ccc(C(=O)N[C@@H](Cc2c[nH]c3ccccc23)C(=O)O)cc1OCc1ccc(Cl)cc1)NCCOCCOCCOCCNC(=O)CCC(=O)Nc1ccc(C(=O)N[C@@H](Cc2c[nH]c3ccccc23)C(=O)O)cc1OCc1ccc(Cl)cc1` yielded a Ratio of 2.1 ×10⁻⁵ /M.
`Nc1ccc(C(=O)N[C@@H](Cc2c[nH]c3ccccc23)C(=O)O)cc1OCc1ccc(Cl)cc1` gave a Ratio of 1.2 ×10⁻⁵ /M.
For `O=C(CCc1c[nH]c2ccccc12)NCCCCCC(=O)Nc1ccc(C(=O)N[C@@H](Cc2c[nH]c3ccccc23)C(=O)O)cc1OCc1ccc(Cl)cc1`, the Ratio was 1.4 ×10⁻⁵ /M.
Compound `O=C(CCc1c[nH]c2ccccc12)NCCCCCC(=O)Nc1ccc(C(=O)N[C@@H](Cc2c[nH]c3ccccc23)C(=O)O)cc1OCCc1c[nH]c2ccccc12` has a Ratio of 1.4 ×10⁻⁵ /M.
Work on `O=C(CCC(=O)Nc1ccc(C(=O)N[C@@H](Cc2c[nH]c3ccccc23)C(=O)O)cc1OCCc1c[nH]c2ccccc12)NCCOCCOCCOCCNC(=O)CCC(=O)Nc1ccc(C(=O)N[C@@H](Cc2c[nH]c3ccccc23)C(=O)O)cc1OCCc1c[nH]c2ccccc12` yielded a Ratio of 1.6 ×10⁻⁵ /M.

Source: ChEMBL document CHEMBL3875191, “Enhanced potency of bivalent small molecule gp41 inhibitors” (Bioorg Med Chem, 2017)
